Measured values reported in patent publication US8486924B2, “Taxane delivery system” (Celator Pharmaceuticals, Inc., priority 2007, dated 2013).

Conditions: mouse, in vivo, iv

In the case of “2′-O-(4″-O-tocopherylsuccinoyl)-paclitaxel [Prodrug 1]”, the “prodrug plasma clearance compared with 3H-CHE label” value is reported as “approximately the same rate”.
